AlphaSeq binding of Ab-14 heavy chain variants to a spike HR2 peptide

Data: MIT Lincoln Laboratory AlphaSeq set, Li et al. 2023, doi:10.1038/s41467-023-39022-2, as distributed in FLAb.

Target: peptide PDVDLGDISGINAS, taken from heptad repeat 2 (HR2) of SARS-CoV-2 spike.

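Designed CDR sequences, proposed from the first random library and measured here. Their group label is 14H_En_Gen (En: ensemble of fine-tuned language models; Gen: genetic algorithm). The assay is AlphaSeq: two haploid yeast populations carry antibody and antigen on their surface. Pairs that bind mate more often; barcode pairs of the diploids are counted by sequencing. Each replicate has its own calibration line, from reference interactions of the BCL2 family. Each pool was mated in six replicate cultures.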

Parent: Ab-14, a human scFv built as VH, a 15-residue (Gly4Ser)3 linker, VL. Only the CDRs of the heavy chain vary.
VH: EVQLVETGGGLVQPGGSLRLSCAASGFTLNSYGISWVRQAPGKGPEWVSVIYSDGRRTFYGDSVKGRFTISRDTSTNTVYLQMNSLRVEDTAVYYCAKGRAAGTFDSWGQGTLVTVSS
VL: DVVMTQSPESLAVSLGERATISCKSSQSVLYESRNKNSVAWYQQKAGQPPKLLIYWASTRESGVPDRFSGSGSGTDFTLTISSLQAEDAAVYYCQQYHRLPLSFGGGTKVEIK

The parent's heavy chain CDRs are GFTLNSYGIS, VIYSDGRRTFYGDSVK, GRAAGTFDS; each variant's own CDRs replace them letter for letter.
Values are log10 of the apparent Kd in nM; lower means stronger binding.
The mean shown is taken over the replicates in which the pair was detected.
An entry "ND" has no value in the source: the pair was not observed among the diploids in that replicate. This suggests poor binding but is not conclusive.
A sequence measured in both rounds can read differently, since the two assays cover different ranges.

CDR-H1,CDR-H2,CDR-H3,"log10 Kd, replicates","log10 Kd (nM), mean",control signals
GFDLDEYGIS,VIYADGMRTYYADSVK,GNEAGTFDV,-0.32 / -0.48 / -0.82 / -0.93 / -0.62 / -0.33,-0.58,0/18
GFDLDEYGIS,VIYADGMRTFYADSVK,GSNAGTFDV,-1.00 / -1.48 / -1.80 / -1.97 / -1.75 / -1.18,-1.53,0/18
GFDLNEYGIS,VIYADGMRTAYADSVK,GVNAGTFDI,-0.25 / -0.25 / -0.38 / -0.58 / -0.39 / 0.03,-0.30,1/18 (3.15)
GFDLDEYGIS,VIYADGKRTAYTDSVK,GNNAGTFDV,-0.47 / -0.19 / -0.38 / -0.71 / -0.48 / -0.33,-0.43,0/18
GFDLNEYGIS,VIYADGQRTAYADSVK,GKNAGTFDI,1.16 / -0.19 / 0.59 / 0.71 / 0.76 / 0.49,0.59,1/18 (1.88)
GFDLDEYGIS,VIYADGMRTYYADSVK,GENAGTFDI,0.05 / -0.01 / 0.15 / -0.09 / 0.12 / 0.14,0.06,0/18
GFDLNEYGIS,VIYADGKRTAYADDVK,GNNAGTFDL,-0.18 / -0.11 / -0.39 / -0.41 / -0.47 / -0.38,-0.32,0/18
GFDLDEYGIS,VIYADGQRTAYADDVK,GENAGTFDQ,0.66 / 0.82 / 0.76 / 0.66 / 0.48 / 0.74,0.69,0/18
GFDLNEYGIS,VIYADGKRTAYTDSVK,GEVAGTFDV,-0.38 / -0.56 / -0.38 / -0.47 / -0.79 / -0.33,-0.48,2/18 (2.35)
GFDLEDYGIS,VIYADGKRTAYADDVK,GNVAGTFDV,-0.58 / -0.51 / -0.49 / -0.86 / -0.64 / -0.52,-0.60,1/18 (0.88)
GFDLDEYGIS,VIYADGQRTAYADSVK,GQTAGTFDV,-0.17 / -0.06 / 0.03 / -0.28 / -0.09 / 0.39,-0.03,0/18
GFDLNEYGIS,VIYADGVRTYYADDVK,GQNAGTFDV,-0.48 / -0.97 / -0.94 / -0.98 / -0.93 / -1.02,-0.88,1/18 (0.84)
GFDLNEYGIS,VIYADGKRTAYADSVK,GETAGTFDM,-0.03 / -0.38 / -0.79 / -0.51 / -0.42 / -0.38,-0.42,0/18
GFDLDEYGIS,VIYADGKRTAYVDSVK,GEVAGTFDV,-0.33 / 0.07 / -0.65 / -0.41 / -0.57 / -0.25,-0.36,1/18 (1.62)
GFDLNEYGIS,VIYADGKRKAYADSVK,GNVAGTFDQ,-0.61 / -0.69 / -0.54 / -0.76 / -0.66 / 0.15,-0.52,0/18
GFDLNEYGIS,VIYADGMRTAYSDNVK,GQNAGTFDV,-0.68 / -0.55 / -1.08 / -0.56 / -1.18 / -0.53,-0.76,0/18
GFDLNEYGIS,VIYADGVRTAYTDSVK,GANAGTFDV,-0.22 / -0.11 / -0.54 / -0.66 / -0.36 / -0.68,-0.43,0/18
GFDLNEYGIS,VIYADGSRTAYADSVK,GNTAGTFDV,-0.98 / -1.22 / -1.50 / -1.43 / -1.45 / -0.78,-1.23,0/18
GFDLDEYGIS,VIYADGRRTAYADSVK,GTNAGTFDI,-0.40 / -0.01 / 0.00 / -0.50 / -0.15 / -0.25,-0.22,0/18
GFDLDEYGIS,VIYADGSRTAYADSVK,GNVAGTFDV,0.00 / -0.41 / -0.69 / -0.39 / -0.90 / -0.47,-0.48,1/18 (1.75)
GFDLDEYGIS,VIYADGSRTAYSDSVK,GQNAGTFDV,-0.13 / 0.06 / -0.24 / -0.03 / -0.38 / -0.16,-0.15,1/18 (1.70)
GFDLNEYGIS,VIYADGKRTAYIDNVK,GNVAGTFDV,-0.31 / -0.60 / -0.46 / -0.61 / -0.32 / -0.24,-0.42,0/18
GFDLDEYGIS,VIYADGMRTAYSDKVK,GENAGTFDL,0.24 / 0.20 / 0.03 / -0.07 / -0.18 / 0.30,0.09,0/18
GFDLDEYGIS,VIYADGMRTAYTDSVK,GGNAGTFDV,-0.44 / -0.73 / -0.39 / -0.75 / -0.69 / -0.46,-0.58,1/18 (0.29)
GFDLNEYGIS,VIYADGKRQAYADSVK,GEVAGTFDV,-0.56 / -0.78 / -0.86 / -1.00 / -0.92 / -0.65,-0.80,0/18
GFDLNEYGIS,VIYADGMRTAYADKVK,GEVAGTFDL,ND / -0.68 / -0.40 / 0.01 / -0.91 / -1.28,-0.65,0/18
GFDLNEYGIS,VIYADGKRTAYVDSVK,GNTAGTFDI,0.23 / -0.02 / -0.11 / 0.07 / 0.39 / 0.56,0.19,1/18 (1.60)
GFDLNEYGIS,VIYADGQRTFYADSVK,GETAGTFDQ,-0.26 / -0.46 / -0.47 / -0.65 / -0.35 / -0.48,-0.45,1/18 (2.18)
GFDLDEYGIS,VIYADGKRTVYADSVK,GNVAGTFDV,ND / -0.94 / -1.50 / ND / ND / -0.75,-1.07,0/18
GFDLNEYGIS,VIYADGRRTFYADSVK,GTNAGTFDV,-0.02 / 0.09 / 0.03 / -0.24 / -0.08 / -0.16,-0.06,0/18
GFDLDEYGIS,VIYADGRRTAYADSVK,GSNAGTFDI,1.71 / 0.10 / -0.39 / -0.03 / -0.89 / 0.12,0.10,0/18
GFDLDEYGIS,VIYADGMRTAYADSVK,GNAAGTFDV,1.24 / 1.25 / 0.56 / 0.59 / 0.66 / 0.79,0.85,0/18
GFDLDEYGIS,VIYADGKRTAYADSVK,GETAGTFDT,1.33 / 0.94 / 1.18 / 0.58 / 0.60 / 1.38,1.00,1/18 (2.53)
GFDLNEYGIS,VIYADGSRTAYADSVK,GQTAGTFDV,-1.27 / -1.44 / -1.70 / -1.90 / -2.13 / -0.68,-1.52,1/18 (-0.04)
GFDLNEYGIS,VIYADGRRTAYTDSVK,GNVAGTFDT,1.36 / 2.10 / 0.80 / 1.63 / 1.52 / 2.23,1.61,0/18
GFDLNEYGIS,VIYADGVRTAYSDDVK,GENAGTFDL,-0.09 / -0.05 / 0.48 / -0.86 / -1.25 / ND,-0.35,0/18
GFDLNEYGIS,VIYADGMRTAYADKVK,GNTAGTFDI,-0.50 / -0.66 / -0.31 / -0.83 / -0.90 / -0.52,-0.62,0/18
GFDLDEYGIS,VIYADGRRTAYADSVK,GEVAGTFDT,0.13 / -0.24 / -0.01 / -0.41 / -0.81 / -0.02,-0.23,0/18
GFDLEEYGIS,VIYADGKRTAYADSVK,GENAGTFDV,0.25 / -0.09 / 0.70 / 0.04 / -0.22 / 0.16,0.14,0/18
GFDLNEYGIS,VIYADGVRTFYADSVK,GNVAGTFDQ,-0.07 / -0.15 / -0.21 / -0.19 / -0.39 / -0.50,-0.25,0/18
GFDLNEYGIS,VIYADGMRTFYADSVK,GNQAGTFDM,0.48 / -0.14 / -0.20 / -0.31 / -0.43 / -0.24,-0.14,0/18
GFDLNEYGIS,VIYADGRRTAYADDVK,GNQAGTFDM,0.06 / -0.59 / -0.56 / -0.56 / -0.58 / -0.36,-0.43,0/18
GFDLNEYGIS,VIYADGKRTAYVDSVK,GENAGTFDL,-0.04 / -0.22 / -0.54 / -0.35 / -0.41 / -0.11,-0.28,1/18 (2.09)

The last 4 entries again:

CDR-H1	CDR-H2	CDR-H3	log10 Kd, replicates	log10 Kd (nM), mean	control signals
GFDLNEYGIS	VIYADGVRTFYADSVK	GNVAGTFDQ	-0.07 / -0.15 / -0.21 / -0.19 / -0.39 / -0.50	-0.25	0/18
GFDLNEYGIS	VIYADGMRTFYADSVK	GNQAGTFDM	0.48 / -0.14 / -0.20 / -0.31 / -0.43 / -0.24	-0.14	0/18
GFDLNEYGIS	VIYADGRRTAYADDVK	GNQAGTFDM	0.06 / -0.59 / -0.56 / -0.56 / -0.58 / -0.36	-0.43	0/18
GFDLNEYGIS	VIYADGKRTAYVDSVK	GENAGTFDL	-0.04 / -0.22 / -0.54 / -0.35 / -0.41 / -0.11	-0.28	1/18 (2.09)

Background: pairings of all heavy chain designs with three empty control strains gave a value in 1% of cases (median 2.08, 5th percentile 0.84). Values in that range, when seen in few replicates, are hard to tell from nonspecific mating. The control count says in how many pairings with the empty strains this scFv gave a signal, with their mean in brackets.
In the paper, a design with two or fewer of six values counts as a poor binder.
The parent sequence was in this pool as ten entries: three were never detected, three once, and four in most replicates, with averages from 0.34 to 2.37.